In ChEMBL document CHEMBL1130965, “Inhibitors of farnesyl protein transferase. Synthesis and biological activity of amide and cyanoguanidine derivatives containing a 5,11-dihydro[1]benzthiepin, benzoxepin, and benzazepin [4,3-b]pyridine ring system” (Bioorg Med Chem Lett, 1998):

Molecular target: Protein farnesyltransferase (Homo sapiens, UniProt P49354+P49356)
Experiment: In vitro FPT potency by measuring the ability to inhibit the transfer of [3H]farnesyl from farnesyl pyrophosphate to H-Ras-CLVS.
Type: protein-complex assay

## O=C(Cc1ccncc1)N1CCN(C2c3ccc(Cl)cc3CCc3cccnc32)CC1 (stereo unspecified)
  IC50: 0.036 µM
